Experiments:
HCC1954 cells [1] = conditions: cited from earlier work
HCC1954 cells [2] = assay: Resistance to HER-targeted drugs after exogenous NmU treatment; format: cell-based; conditions: HCC1954, exogenous NmU (NmU-25) 48 hours; all drugs
Method: To assess if functional NmU receptors are expressed on cells, SKBR3 and HCC1954, (1×10^6 cells) were seeded in 25 cm^2 flask, allowed attach overnight and subsequently treated with 1 μM of NmU-25 (Bachem, Switzerland) for 24-48 hours.

HCC1954-NmU cells = assay: Proliferation assay, NmU cDNA- versus mock-transfected cells; format: cell-based; conditions: HCC1954-NmU vs HCC1954-mock
Method: (§1) Two siRNAs, designated NmU-1 (SEQ ID NO: 3; 5′-[…]-3′) and NmU-2 (SEQ ID NO: 4; 5′-[…]-3′) (s225456 and s21351, respectively, Ambion, UK), (30 nM) were used to target NmU. Scrambled siRNA (SCR) (AM4611, Ambion, UK) was used as negative control. Transient transfections were harvested 72 hours post-transfection for RNA and protein extraction. NmU full-length cDNA was sub-cloned from pOTB7 (clone ID3502168, Open Biosystems, Ireland) by PCR into pcDNA 3.1(+) zeo-plasmid vector (Invitrogen, Ireland). The construct was verified by DNA sequencing. Mock controls used were of pcDNA3.1(+) plasmid lacking NmU cDNA. Lipofectamine 2000 (Invitrogen, Ireland) was used for transfection following the manufacturer's instructions. Stable transfectants were established by selecting with zeocin (50 μg/ml and 300 μg/ml for HCC1954 and SKBR3 transfected cells, respectively; based on initial assessment of the toxicity of zeocin on these cells) (Invitrogen, Ireland).
(§2) Cells with acquired-resistance compared to aged-parent cells and NmU cDNA-versus mock-transfected cells (HCC1954 variants, 2×10^3 cells/well; SKBR3 variants, 5×10^3 cells/well) were seeded for 24 hours prior to drug additions. […] Five days later, acid phosphatase assay was performed as previously detailed (3).

SKBR3-NmU cells = assay: as above; format: cell-based; conditions: SKBR3-NmU vs SKBR3-mock
Method: as §1, §2

SKBR3 cells = conditions: cited from earlier work
[3] = system: NmU mRNA in HCC1954 cells; assay: Short-term drug exposure, qPCR of NmU mRNA in conditioned medium and cells; format: cell-based; conditions: HCC1954, 12.5 μg/ml, 48 hours, vs untreated control
Method: Conditioned medium (CM) was collected, centrifuged and filtered, as previously described (1-2), prior to NmU mRNA and protein analysis.
Total RNA was isolated from cell lines and CM using TriReagent (Sigma-Aldrich). In order to remove any potential contaminating genomic DNA, RNA was treated with DNase enzymes and minus reverse transcriptase enzyme controls verified no DNA/pseudogene contamination of starting material. cDNA was prepared from 500ng cell-derived and 4 μl CM-derived total RNA, respectively.

MDA-MB-361 = conditions: cited from earlier work

## Trastuzumab
HCC1954 cells [1]
  innate sensitivity/resistance: resistant
HCC1954 cells [2]
  level of resistance induced by exogenous NmU: 1.1 fold
HCC1954-NmU cells
  anti-proliferative effects in NmU-transfected compared to mock-transfected cells: exception
SKBR3-NmU cells
  anti-proliferative effects in NmU-transfected compared to mock-transfected cells: significantly compromised
SKBR3 cells
  innate sensitivity/resistance: sensitive
[3]
  induced NmU mRNA levels in CM: 3.9±1 fold
  induced NmU mRNA levels in corresponding cells: 3.9±1.15 fold
MDA-MB-361
  innate sensitivity/resistance: sensitive

Source: patent publication US20140328840A1, “MARKER AND TARGET FOR RESPONSIVENESS AND RESISTANCE TO CANCER AGENTS” (The Provost, Fellows, Foundation Scholars, and the Other …, priority 2011, published 2014)
